Measured values reported in patent publication US20060069032A1, “Beta-endorphin activity in cosmetics and dermatology” (L'OREAL, priority 2003, published 2006).

By UniProt entry, the sequences of proteins in these tests, tags left out.
UniProt P35372, whole entry: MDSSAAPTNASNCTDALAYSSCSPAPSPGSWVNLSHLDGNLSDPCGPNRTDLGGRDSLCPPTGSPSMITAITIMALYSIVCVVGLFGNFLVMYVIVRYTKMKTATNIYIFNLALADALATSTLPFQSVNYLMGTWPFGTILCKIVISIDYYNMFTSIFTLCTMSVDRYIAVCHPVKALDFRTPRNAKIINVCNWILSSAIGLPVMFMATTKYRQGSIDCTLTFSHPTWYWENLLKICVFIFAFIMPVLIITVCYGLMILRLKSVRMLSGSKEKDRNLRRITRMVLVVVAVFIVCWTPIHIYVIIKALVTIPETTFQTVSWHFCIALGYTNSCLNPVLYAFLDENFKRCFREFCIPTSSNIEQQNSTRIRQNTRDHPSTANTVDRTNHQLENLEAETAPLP
UniProt P41143, whole entry: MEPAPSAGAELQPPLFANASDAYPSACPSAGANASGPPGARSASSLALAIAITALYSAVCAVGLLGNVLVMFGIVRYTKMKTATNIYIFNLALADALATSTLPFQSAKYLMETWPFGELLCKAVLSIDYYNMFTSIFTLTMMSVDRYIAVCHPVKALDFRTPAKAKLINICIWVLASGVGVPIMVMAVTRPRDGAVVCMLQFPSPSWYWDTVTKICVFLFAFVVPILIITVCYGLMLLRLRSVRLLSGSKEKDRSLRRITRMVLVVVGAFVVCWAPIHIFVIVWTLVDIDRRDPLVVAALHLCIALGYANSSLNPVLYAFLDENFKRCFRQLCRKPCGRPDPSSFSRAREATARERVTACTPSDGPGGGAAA

How the values were obtained:
[1] = system: Transglutaminase 1 (TGK) messenger; test: Transglutaminase I (TGK) messenger expression by quantitative RT-PCR in reconstructed epidermis SkinEthic; assay type: cell-based, human; details: 0.01 μM, 24 hours
Description: The study was carried out on a model of reconstructed epidermis SkinEthic. Upon receiving, the epidermes were precultured for 24 hours in SkinEthic medium. The culture medium was then replaced with medium containing the test product (two epidermes per concentration tested), and then the epidermes were cultured for 24 hours at 37° C. and 5% CO2. A batch of 2 epidermes was not treated. The culture supernatants were then removed and the epidermes were rinsed with a PBS solution, cut and deposited in sterile RNA-free tubes in the presence of Tri-Reagent (Sigma T9424) and then immediately frozen at −80° C. […]
The reverse transcription was carried out in the following manner: • extraction of the total RNA of each epidermis with the aid of Tri-Reagent according to the protocol recommended by the supplier, and then a new extraction with chloroform and precipitation with isopropanol. • removal of the traces of potentially contaminating DNA by treating with the DNA-free system (Ambion) • carrying out of the reaction of reverse transcription of the mRNA in the presence of the oligo(dT) primer and of the enzyme Superscript II (Gibco) • quantification, by fluorescence, of the synthesized cDNA and adjustment of the concentrations of 50 ng/ml. […]
The incorporation of fluorescence into the amplified DNA was measured continuously during the PCR cycles. […]

mu receptors = mu receptors (Homo sapiens, UniProt P35372); details: cited from earlier work
delta receptors = delta receptors (Homo sapiens, UniProt P41143); details: cited from earlier work

β-Endorphin [Beta-endorphin]
TGK/actin [1]: 0.149 | affinity for the mu receptors (mu receptors): high affinity | affinity for the delta receptors (delta receptors): high affinity
